Read-outs that look alike come from different tables or passages of the source.
Experiments:
[1] = In vitro compatibility of absorption enhancers with zinc sulfate (Example 16); format: physicochemical; details: absorption enhancer 10 mg/ml with desmopressin acetate and ZnSO4 5 mg/ml, in 2 ml aqua purificata, visual examination
Method: Solid dry powder mixtures of desmopressin acetate, zinc sulfate and different absorption enhancers were prepared and dissolved in 2 ml aqua purificata.

[2] = for AUC(0-t) / Cmax: human insulin 22 IU/kg into mid-jejunum, rats, sodium caprate 10 mg/ml
[3] = mid-jejunum, rats
[4] = no trace element, no reducing agent
[5] = predosing 10 min CuSO4 1 mg/ml + sodium ascorbate 10 mg/ml, 22 IU/kg human insulin + 50 mg/ml sodium caprate
[6] = predosing CuSO4 + sodium ascorbate, 22 IU/kg human insulin + 50 mg/ml lauroyl-DL-carnitine-chloride + 40 mg/ml Na2HPO4
[7] = predosing CuSO4 + sodium ascorbate, 22 IU/kg human insulin + 100 mg/ml Cremophor EL + 10 mg/ml Na2HPO4

In the case of Sucrose laurate, the “Dissolution in aqueous medium (2 ml)” value [1] is reported as “Clear solution”.

In the case of human insulin, the “oral bioavailability of human insulin, in words” value ([2]; blend with sodium caprate, copper and ascorbate compared with sodium caprate alone) is reported as “moderately improved the oral bioavailability”, the “AUC(0-t)” value ([2]; CuSO4 1 mg/ml, ascorbate) is reported as 2505 ± 2921 pmol·min/L and the Cmax ([2]; CuSO4 1 mg/ml, ascorbate) is reported as 0.037 ± 0.054 nM. For the same substance, the “AUC(0-t)” value [2, 4] was 2093 ± 1759 pmol·min/L, the Cmax [2, 4] was 0.028 ± 0.024 nM and the “AUC(0-t)” value [3, 5] was 5351 ± 2289 pmol·min/L. The Cmax [3, 5] was 0.072 ± 0.026 nM, the “AUC(0-t)” value [3, 6] was 145896 ± 89530 pmol·min/L and the Cmax [3, 6] was 1.85 ± 1.12 nM. The “AUC(0-t)” value [3, 7] was 2340 ± 899 pmol·min/L and the Cmax [3, 7] was 0.048 ± 0.023 nM.

Source: patent US20170304195A1, “PHARMACEUTICAL FORMULATIONS FOR THE ORAL DELIVERY OF PEPTIDE OR PROTEIN DRUGS” (Cyprumed GmbH, priority 2014, published 2017)
